Literature values in patent US9205086B2, “Cancer therapy using a combination of a Hsp90 inhibitory compounds and a EGFR inhibitor” (Synta Pharmaceuticals Corp., priority 2010, dated 2015).

Tested on: EGFR
Details: subset of patients with mutations in the tyrosine kinase domain of EGFR; Lynch, et al.; cited from earlier work

## COc1cc2ncnc(Nc3ccc(F)c(Cl)c3)c2cc1OCCCN1CCOCC1 [Gefitinib]
  efficacy in lung cancer patients: highly efficacious
